The record followed here is US5766848A (Synaptic Pharmaceutical Corporation, priority 1994, dated 1998).

Protein sequences, listed by entry. Tags and fused reporters are not part of them. Lines headed by an entry give the natural chain unless they say otherwise; changes in a name come on top.
UniProt P48065: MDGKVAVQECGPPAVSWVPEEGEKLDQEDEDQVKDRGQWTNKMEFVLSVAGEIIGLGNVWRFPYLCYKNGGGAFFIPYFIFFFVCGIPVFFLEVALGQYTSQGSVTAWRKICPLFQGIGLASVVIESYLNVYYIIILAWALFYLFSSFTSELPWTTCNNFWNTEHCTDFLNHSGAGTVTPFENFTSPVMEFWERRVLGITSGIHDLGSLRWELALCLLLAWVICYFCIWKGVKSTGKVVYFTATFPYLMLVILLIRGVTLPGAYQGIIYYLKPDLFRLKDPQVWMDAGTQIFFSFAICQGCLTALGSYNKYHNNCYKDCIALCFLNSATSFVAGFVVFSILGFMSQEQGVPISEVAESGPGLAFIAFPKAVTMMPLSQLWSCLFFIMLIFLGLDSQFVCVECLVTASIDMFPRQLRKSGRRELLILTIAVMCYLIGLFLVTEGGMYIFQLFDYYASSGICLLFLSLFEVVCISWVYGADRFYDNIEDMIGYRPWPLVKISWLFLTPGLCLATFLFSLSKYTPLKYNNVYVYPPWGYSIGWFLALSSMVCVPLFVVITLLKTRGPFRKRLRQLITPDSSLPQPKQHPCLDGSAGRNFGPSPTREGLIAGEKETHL
UniProt P30531: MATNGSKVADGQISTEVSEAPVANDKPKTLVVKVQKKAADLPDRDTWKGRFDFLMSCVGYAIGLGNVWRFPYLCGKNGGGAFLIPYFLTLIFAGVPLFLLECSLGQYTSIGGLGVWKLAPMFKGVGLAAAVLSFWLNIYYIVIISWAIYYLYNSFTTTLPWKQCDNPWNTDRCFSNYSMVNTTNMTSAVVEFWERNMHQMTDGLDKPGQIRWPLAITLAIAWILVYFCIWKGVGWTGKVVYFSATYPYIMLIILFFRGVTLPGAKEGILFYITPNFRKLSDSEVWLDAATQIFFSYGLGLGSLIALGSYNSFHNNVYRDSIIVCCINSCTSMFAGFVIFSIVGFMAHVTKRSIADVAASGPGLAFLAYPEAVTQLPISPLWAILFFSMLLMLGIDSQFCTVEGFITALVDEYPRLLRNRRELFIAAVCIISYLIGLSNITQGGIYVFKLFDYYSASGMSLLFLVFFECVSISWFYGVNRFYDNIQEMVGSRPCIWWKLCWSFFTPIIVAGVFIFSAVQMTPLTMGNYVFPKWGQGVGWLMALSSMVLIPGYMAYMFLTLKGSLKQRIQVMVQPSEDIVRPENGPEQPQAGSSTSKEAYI

For assay [1], the target named is T1, human BGT-1 (Homo sapiens, UniProt P48065).
T1 sequence (P48065 1-614 C10Y): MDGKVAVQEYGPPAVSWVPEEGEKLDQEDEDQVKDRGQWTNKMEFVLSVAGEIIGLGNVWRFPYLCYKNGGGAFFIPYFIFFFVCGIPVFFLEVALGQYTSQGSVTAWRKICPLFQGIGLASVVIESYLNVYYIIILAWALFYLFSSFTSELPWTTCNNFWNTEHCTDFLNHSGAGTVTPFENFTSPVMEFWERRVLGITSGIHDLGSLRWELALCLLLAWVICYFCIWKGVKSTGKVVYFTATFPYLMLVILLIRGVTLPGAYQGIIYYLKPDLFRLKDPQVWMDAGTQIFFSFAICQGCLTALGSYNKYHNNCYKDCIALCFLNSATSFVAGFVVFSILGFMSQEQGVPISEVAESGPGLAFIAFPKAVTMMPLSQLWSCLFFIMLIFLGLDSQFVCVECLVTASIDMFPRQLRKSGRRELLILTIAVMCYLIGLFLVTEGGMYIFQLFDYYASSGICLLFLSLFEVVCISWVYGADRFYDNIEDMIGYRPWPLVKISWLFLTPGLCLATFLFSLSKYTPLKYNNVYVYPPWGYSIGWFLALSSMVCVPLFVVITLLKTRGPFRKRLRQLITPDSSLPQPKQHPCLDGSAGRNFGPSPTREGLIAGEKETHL
The settings on record: read-out: IC50, human BGT-1, inhibition of [3H]GABA uptake; Table 9; stable LM(tk-) cell line; means ± S.E.M.

For assay [2], the target named is human GAT-1 (Homo sapiens, UniProt P30531). Conditions: read-out: IC50, human GAT-1, inhibition of [3H]GABA uptake; Table 9; stable LM(tk-) cell line; means ± S.E.M.

Broadly, the IC50 is the point on the concentration scale where inhibition reaches its midpoint. As to `O=C(O)C1CCCN(CCC=C(c2ccccc2)c2ccccc2)C1` (centres unmarked) [SK&F 89976-A, N-(4,4-diphenyl-3-butenyl)-3-piperidinecarboxylic acid], the IC50 in assay [1] turned out to be 7.21 ± 3.63 mM; in assay [2] it was 130 ± 10 nM.
